Earlier results, collected in patent US10646532B2, “Method for preparing water extract of ashwagandha leaves which has enhanced anti-cancer activity utilizing cyclodextrin, and pharmaceutical composition containing ashwagandha leaves” (National Institute of Advanced Industrial Science and …, priority 2014, dated 2020).

System: cancer cells / normal cells
Details: in vitro test, background art

CC1=C(CO)C(=O)O[C@@H](C(C)[C@H]2CCC3[C@@H]4C[C@H]5O[C@]56[C@@H](O)C=CC(=O)[C@]6(C)C4CC[C@@]32C)C1 (stereo partly shown) [withaferin A]
cytotoxicity to cancer cells versus normal cells: has effects even on normal cells
